Test results reported in paper PMC8792998 (Journal of medicinal chemistry, 2021).

Test system: C. parvum
Test: C. parvum time-kill curve
Assay type: cell-based, Cryptosporidium parvum
Conditions: compound added at multiples of EC90 24 hours after infection

SMILES: O=C(Cc1ccc(Cl)c(Cl)c1)N1CCN(c2ccc3nncn3n2)CC1 [Compound 12a, 2-(3,4-Dichlorophenyl)-1-(4-{[1,2,4]triazolo[4,3-b]pyridazin-6-yl}piperazin-1-yl)ethan-1-one]
- effect on parasite numbers in time-kill assay: parasite numbers declined exponentially
